Sequences of proteins named here, by UniProt entry; tags and fusion partners are left off.
UniProt P28223, whole entry: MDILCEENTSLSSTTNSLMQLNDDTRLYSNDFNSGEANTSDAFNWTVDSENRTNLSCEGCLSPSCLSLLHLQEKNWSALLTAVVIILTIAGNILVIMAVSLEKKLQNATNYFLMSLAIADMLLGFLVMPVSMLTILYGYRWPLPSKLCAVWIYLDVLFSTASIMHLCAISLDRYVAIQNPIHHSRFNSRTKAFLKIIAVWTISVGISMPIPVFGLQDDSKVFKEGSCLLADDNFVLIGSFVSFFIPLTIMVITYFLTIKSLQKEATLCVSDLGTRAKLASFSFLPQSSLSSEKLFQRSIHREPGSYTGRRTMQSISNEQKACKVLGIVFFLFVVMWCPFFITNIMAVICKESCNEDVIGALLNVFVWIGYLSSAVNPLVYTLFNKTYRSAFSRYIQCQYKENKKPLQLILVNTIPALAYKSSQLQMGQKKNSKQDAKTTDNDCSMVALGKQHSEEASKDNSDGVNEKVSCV
UniProt P35462, whole entry: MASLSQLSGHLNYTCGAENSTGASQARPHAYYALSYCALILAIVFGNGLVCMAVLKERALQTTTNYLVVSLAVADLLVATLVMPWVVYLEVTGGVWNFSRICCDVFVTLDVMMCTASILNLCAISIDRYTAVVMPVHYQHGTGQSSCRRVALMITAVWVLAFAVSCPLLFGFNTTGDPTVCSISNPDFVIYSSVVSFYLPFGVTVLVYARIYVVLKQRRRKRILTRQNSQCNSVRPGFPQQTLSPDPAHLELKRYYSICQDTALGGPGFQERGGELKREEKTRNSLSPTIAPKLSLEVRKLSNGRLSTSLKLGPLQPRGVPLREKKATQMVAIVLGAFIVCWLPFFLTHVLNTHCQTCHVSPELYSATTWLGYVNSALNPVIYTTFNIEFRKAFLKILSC
UniProt P14416, whole entry: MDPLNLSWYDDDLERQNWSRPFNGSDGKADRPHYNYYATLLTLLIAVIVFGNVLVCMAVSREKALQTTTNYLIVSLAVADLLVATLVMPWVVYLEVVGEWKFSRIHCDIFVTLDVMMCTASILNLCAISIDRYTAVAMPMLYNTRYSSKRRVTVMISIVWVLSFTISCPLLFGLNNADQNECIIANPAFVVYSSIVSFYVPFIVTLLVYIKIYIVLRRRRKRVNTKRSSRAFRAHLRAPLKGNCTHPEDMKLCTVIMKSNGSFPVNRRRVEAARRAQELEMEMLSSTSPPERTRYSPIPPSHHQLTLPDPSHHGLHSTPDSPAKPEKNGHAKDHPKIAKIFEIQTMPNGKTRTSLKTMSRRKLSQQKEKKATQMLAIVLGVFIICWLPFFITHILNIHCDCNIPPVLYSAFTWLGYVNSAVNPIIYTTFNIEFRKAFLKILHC

According to US8039490B2, “Benzoyl-piperidine derivatives as dual modulators of the 5-HT2A and D3 receptors” (Hoffmann-La Roche Inc., priority 2006, dated 2011):

Legend:
[1] = target: human 5-HT2A serotonin receptor (Homo sapiens, UniProt P28223); experiment: Radioligand binding, human 5-HT2A receptor ([3H]-ketanserin); conditions: read-out: Ki(nM) D3/5HT2A/D2: 5HT2A; second value of the cell; membranes of transfected HEK-293 EBNA cells, 1.1 nM [3H]-ketanserin
[2] = target: human D3 dopamine receptor (Homo sapiens, UniProt P35462); experiment: Radioligand binding, human D3 receptor ([3H]-spiperone); conditions: read-out: Ki(nM) D3/5HT2A/D2: D3; first value of the cell; membranes of transfected HEK-293 EBNA cells, 0.5 nM [3H]-spiperone
[3] = target: human D2 dopamine receptor (Homo sapiens, UniProt P14416); experiment: Radioligand binding, human D2 receptor ([3H]-spiperone); conditions: read-out: Ki(nM) D3/5HT2A/D2: D2; third value of the cell; membranes of transfected HEK-293 EBNA cells, 0.7 nM [3H]-spiperone

SMILES: O=C(N[C@H]1CC[C@H](CCN2CCC(C(=O)c3ccc(F)c(F)c3)CC2)CC1)C1CCOCC1 (relative stereo)
- Ki [1]: 38 nM
- Ki [2]: 71 nM
- Ki [3]: 1450 nM
